Measured values reported in ChEMBL document CHEMBL1687894, “Design, synthesis and evaluation of 3-methylene-substituted indolinones as antimalarials” (Eur J Med Chem, 2011).

Tested on: Plasmodium falciparum
Experiment: Antiplasmodial activity against chloroquine-resistant Plasmodium falciparum W2 infected in human red blood cells assessed as inhibition of ring-stage parasite growth after 48 hrs by flow cytometry
Type: functional, organism-based
Settings: W2, 48 h

## CC(C)C[C@H](NC(=O)[C@H]1O[C@@H]1C(=O)O)C(=O)NCCCCN=C(N)N [E-64]
  IC50: 1940 nM
